Reference: US12359182B2, “Polypeptide variants” (Novozymes A/S, priority 2020, dated 2025)

Sequences of proteins named here, by UniProt entry; tags and fusion partners are left off.
UniProt A4K5H9, entry or part of it V33H: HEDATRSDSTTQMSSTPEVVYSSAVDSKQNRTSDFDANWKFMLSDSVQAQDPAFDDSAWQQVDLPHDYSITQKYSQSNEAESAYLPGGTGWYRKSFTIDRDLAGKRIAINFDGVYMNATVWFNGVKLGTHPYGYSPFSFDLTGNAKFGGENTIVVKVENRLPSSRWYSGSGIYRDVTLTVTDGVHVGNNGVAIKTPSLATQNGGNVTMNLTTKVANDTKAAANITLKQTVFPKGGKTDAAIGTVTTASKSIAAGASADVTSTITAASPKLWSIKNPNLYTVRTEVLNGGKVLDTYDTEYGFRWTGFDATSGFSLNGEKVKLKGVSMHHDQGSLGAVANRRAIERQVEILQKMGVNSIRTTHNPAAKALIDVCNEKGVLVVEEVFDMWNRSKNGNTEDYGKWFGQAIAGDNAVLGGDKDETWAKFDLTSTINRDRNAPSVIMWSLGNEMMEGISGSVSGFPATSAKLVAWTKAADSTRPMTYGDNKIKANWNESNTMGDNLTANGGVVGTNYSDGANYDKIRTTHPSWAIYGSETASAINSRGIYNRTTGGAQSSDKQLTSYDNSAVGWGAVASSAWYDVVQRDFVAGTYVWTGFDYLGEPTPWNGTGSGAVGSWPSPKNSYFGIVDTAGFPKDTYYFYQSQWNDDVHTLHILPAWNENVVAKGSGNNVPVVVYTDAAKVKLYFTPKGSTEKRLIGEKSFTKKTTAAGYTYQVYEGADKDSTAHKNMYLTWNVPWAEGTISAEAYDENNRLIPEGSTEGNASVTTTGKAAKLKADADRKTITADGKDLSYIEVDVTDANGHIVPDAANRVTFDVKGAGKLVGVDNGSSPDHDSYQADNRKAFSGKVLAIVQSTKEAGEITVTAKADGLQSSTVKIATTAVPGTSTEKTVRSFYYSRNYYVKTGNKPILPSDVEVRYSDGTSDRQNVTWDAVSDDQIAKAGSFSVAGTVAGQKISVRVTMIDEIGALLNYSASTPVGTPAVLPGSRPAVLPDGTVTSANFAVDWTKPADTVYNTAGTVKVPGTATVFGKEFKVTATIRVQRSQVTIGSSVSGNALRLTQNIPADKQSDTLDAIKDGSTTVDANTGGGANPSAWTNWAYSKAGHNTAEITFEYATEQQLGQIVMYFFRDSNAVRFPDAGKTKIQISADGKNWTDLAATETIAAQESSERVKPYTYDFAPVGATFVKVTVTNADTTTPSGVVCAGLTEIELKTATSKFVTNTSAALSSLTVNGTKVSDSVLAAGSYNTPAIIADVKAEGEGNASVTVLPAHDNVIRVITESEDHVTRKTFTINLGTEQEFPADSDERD
UniProt A4K5H9, entry or part of it V33L: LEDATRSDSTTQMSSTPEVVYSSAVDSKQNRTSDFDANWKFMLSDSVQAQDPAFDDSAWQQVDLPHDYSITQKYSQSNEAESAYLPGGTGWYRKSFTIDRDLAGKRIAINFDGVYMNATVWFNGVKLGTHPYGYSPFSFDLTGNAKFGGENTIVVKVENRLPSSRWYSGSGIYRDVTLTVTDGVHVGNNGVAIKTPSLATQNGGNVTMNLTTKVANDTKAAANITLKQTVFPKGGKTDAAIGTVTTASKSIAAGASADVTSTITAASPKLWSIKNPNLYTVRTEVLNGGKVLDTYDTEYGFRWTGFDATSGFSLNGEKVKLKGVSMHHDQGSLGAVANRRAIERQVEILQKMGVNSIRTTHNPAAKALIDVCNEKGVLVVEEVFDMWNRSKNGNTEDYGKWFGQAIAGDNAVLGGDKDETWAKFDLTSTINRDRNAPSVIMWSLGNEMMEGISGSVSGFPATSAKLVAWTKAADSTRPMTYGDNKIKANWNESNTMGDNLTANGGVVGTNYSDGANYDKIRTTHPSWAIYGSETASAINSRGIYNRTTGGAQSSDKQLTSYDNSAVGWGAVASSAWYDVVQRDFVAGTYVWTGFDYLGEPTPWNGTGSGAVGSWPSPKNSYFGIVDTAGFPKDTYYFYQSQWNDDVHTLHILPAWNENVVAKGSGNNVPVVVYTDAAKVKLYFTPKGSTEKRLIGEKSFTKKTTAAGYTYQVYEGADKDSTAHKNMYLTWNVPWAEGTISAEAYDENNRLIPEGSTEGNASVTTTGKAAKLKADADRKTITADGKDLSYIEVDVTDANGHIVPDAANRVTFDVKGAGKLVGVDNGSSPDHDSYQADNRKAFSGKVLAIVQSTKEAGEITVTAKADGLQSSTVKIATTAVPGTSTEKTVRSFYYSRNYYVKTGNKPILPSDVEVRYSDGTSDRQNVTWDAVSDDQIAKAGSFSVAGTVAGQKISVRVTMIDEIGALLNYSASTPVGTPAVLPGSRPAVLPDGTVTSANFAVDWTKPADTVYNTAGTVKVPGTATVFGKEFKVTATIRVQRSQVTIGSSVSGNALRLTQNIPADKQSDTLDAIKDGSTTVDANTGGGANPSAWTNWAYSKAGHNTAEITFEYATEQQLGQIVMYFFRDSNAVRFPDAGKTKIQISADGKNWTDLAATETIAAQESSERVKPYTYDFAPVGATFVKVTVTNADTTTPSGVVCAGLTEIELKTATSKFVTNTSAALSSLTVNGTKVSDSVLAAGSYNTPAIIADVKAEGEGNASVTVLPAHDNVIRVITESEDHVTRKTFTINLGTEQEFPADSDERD
UniProt A4K5H9, entry or part of it E34D: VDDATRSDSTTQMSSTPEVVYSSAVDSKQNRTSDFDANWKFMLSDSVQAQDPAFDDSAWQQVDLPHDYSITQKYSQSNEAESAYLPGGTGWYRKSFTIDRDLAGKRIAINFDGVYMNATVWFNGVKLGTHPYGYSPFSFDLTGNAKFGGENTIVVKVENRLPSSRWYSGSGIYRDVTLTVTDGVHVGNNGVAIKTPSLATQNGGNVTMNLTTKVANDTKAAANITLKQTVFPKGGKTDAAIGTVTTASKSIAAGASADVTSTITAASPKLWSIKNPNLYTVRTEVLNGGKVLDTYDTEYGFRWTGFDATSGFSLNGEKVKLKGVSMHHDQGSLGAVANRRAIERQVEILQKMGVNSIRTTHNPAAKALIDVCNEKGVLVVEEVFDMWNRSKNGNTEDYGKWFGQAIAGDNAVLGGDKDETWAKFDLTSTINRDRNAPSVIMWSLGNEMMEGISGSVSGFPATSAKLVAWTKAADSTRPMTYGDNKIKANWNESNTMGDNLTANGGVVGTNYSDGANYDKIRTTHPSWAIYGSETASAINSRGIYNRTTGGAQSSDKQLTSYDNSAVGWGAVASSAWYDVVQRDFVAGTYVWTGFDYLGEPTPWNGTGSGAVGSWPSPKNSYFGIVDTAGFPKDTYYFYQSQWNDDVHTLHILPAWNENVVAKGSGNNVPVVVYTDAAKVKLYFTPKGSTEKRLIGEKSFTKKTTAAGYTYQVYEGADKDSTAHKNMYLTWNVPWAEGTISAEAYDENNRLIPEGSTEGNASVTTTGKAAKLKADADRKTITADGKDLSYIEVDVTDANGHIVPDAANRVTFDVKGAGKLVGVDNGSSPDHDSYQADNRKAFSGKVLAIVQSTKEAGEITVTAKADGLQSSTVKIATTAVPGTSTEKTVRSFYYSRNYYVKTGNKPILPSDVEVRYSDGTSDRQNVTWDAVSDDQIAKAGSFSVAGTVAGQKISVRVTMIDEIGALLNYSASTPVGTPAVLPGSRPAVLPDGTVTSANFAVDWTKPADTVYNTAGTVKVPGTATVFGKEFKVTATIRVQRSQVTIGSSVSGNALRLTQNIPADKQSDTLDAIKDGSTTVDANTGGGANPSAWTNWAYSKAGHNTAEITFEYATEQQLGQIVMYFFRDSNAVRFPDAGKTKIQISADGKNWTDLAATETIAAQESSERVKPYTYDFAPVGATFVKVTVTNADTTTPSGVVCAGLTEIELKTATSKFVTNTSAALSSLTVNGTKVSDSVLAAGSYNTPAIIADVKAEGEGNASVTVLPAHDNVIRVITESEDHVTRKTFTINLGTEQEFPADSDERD

Tests used:
Format in all cases: biochemical
Conditions in all cases: D-(+)-Galactose 80 mM, ONPG 10.66 mM, pH 6.0, 30 min at 23° C., ratio of activity with/without galactose relative to wild type SEQ ID NO: 1 (IF=1.0), above 1 = decreased galactose inhibition
[1] = biological target: Bifidobacterium bifidum lactase (SEQ ID NO: 1) variant V1H (Bifidobacterium bifidum, UniProt A4K5H9, V33H)
Method: (§1) Stop solution is added (Na2CO3, 10% w/v in H2O), and the absorbance at 405 nm is recorded. “Abs405 Galactose sample” is the absorbance for the lactase grown in assay solution, “Abs405 Galactose Blank” is the absorbance for non-inoculated assay solution, “Abs405 Reference sample” is the absorbance for the lactase grown in reference solution, and “Abs405 Reference Blank” is the absorbance for non-inoculated reference solution.

[2] = biological target: Bifidobacterium bifidum lactase (SEQ ID NO: 1) variant V1L (Bifidobacterium bifidum, UniProt A4K5H9, V33L)
Method: as §1

[3] = biological target: Bifidobacterium bifidum lactase (SEQ ID NO: 1) variant E2D (Bifidobacterium bifidum, UniProt A4K5H9, E34D)
Method: as §1

OC[C@H]1OC(O)[C@H](O)[C@@H](O)[C@H]1O (stereo partly drawn) [D-(+)-Galactose]
GI-IF (galactose inhibition assay improvement factor) [1]: 1.31
GI-IF (galactose inhibition assay improvement factor) [2]: 1.35
GI-IF (galactose inhibition assay improvement factor) [3]: 1.36
